For two compounds, IC50 results are on record in US5866681A, “Thrombin receptor antagonists” (priority 1995, dated 1999).

Amino acid sequences for entries named in this document (tags omitted). Residues count along the entry.
UniProt P25116, 22-425 limits assumed: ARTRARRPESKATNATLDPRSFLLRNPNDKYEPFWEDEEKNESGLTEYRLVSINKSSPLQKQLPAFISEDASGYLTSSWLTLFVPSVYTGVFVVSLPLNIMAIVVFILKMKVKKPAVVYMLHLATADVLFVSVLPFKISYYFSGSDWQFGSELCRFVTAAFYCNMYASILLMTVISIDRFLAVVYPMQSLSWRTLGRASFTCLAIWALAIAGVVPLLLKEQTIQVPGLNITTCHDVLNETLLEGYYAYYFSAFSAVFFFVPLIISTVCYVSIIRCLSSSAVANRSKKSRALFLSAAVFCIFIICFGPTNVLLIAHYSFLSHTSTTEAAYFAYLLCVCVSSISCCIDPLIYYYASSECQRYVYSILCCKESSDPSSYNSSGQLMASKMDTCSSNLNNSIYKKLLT

The test concerns the target thrombin receptor (Homo sapiens, UniProt P25116). Put plainly: Platelet aggregation assay for thrombin receptor antagonist activity (washed human platelets stimulated with α-thrombin). It is filed as cell-based. The settings on record: read-out: IC50 (concentration at which 50% inhibition of platelet aggregation is achieved), thrombin-mediated aggregation. As for the experimental part: The compounds of the present invention may be tested for thrombin receptor antagonist activity by using a platelet aggregation assay. In this assay, washed human platelets are prepared from blood drawn from healthy volunteers who have not ingested any medications for two weeks prior to donation. Blood is drawn into 12.5% (vol/vol) ACD (85 mM sodium citrate, 111 mM dextrose, 71 mM citric acid) containing 0.1% (vol/vol) PGI2 (0.05 mg/mL PGI2, 100 mM Tris, pH 12). Platelet-rich plasma was obtained by centrifugation at 160×g for 20 minutes. The platelets were pelleted by centrifugation at 760×g for 10 minutes and resuspended in CGS (13 mM trisodium citrate, 120 mM sodium chloride, 30 mM dextrose, pH 7.0) containing 0.1% (vol/vol) PGI2, repelleted and resuspended in Tyrodes buffer (10 mM Hepes, 12 mM sodium bicarbonate, 138 mM sodium chloride, 5.5 mM glucose, 2.9 mM potassium chloride, 1.0 mM calcium chloride, pH 7.4) and stored at 37° C. Approximately 0.4-10 nM α-thrombin is used to stimulate platelet aggregation in control reactions which are monitored by aggregometry using an aggregometer. […]
Platelet aggregation can also be measured with washed platelets in 96-well microtiter plates as described in Fratantoni, J. C. et al., Am. […] The ability of the antagonists to block the thrombin receptor was assessed in this assay using various concentrations of antagonists. […]

With `N=C(N)NCCC[C@H](NC(=O)[C@H](CCCNC(=N)N)NC(=O)[C@H](CC1CCCCC1)NC(=O)[C@@H](CCCOc1ccccc1)Cc1ccccc1)C(N)=O`, the IC50 came out at 6 µM.

For `CCCCCN1Cc2ccccc2C[C@H]1C(=O)N[C@@H](CC1CCCCC1)C(=O)N[C@@H](CC1CCCCC1)C(=O)N(C)[C@@H](CCCNC(=N)N)C(N)=O`, the IC50 was found to be 5 µM.
